PubChem BioAssay AID588334 (Broad Institute, 2011)
The entries are a selection whose mix differs from that of the whole data set. Active and inactive are the calls of the source.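 How the source made its calls: active means mean activation of at least 80% with every replicate also reaching 80%; inconclusive means mean reaches 80% but some replicate falls short; inactive means the rest.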

assay: activators of MITF-driven TRPM1 promoter reporter, primary screen, cell-based, SK-MEL-5, luciferase, single point (AID 588334); conditions: SK-MEL-5 TRPM1-promoter luciferase, 24 h; at 12.5 µM; stronger effect = higher value; % of positive control, neutral wells = 0;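 further: 0% = neutral control wells and 100% = parthenolide positive control wells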

| SMILES | activation |
| --- | --- |
| CCOC(=O)c1ccc(NP(C)(=O)Oc2ccc(Cl)cc2)cc1 (centres undefined) | inactive: -1.24% |
| CN(C)C(=O)c1c([N+](=O)[O-])cc([N+](=O)[O-])cc1[N+](=O)[O-] | inactive: -42.7% |
| CP(=O)(Nc1ccc(Cl)cc1)Oc1ccc(F)cc1 (centres undefined) | inactive: 0.874% |
| CC(C)(C)c1ccc(OP(C)(=O)O)cc1 | inactive: -6.63% |
| COc1ccccc1OP(C)(=O)Nc1ccccc1Br (centres undefined) | inactive: -6.06% |
| CP(=O)(Oc1ccccc1)N1CCOC1=O (centres undefined) | inactive: -3.37% |
| CCc1ccc(OP(C)(=O)Nc2cccnc2)cc1 (centres undefined) | inactive: -3.03% |
| COc1ccccc1OP(C)(=O)Nc1c(C)n(C)n(-c2ccccc2)c1=O (centres undefined) | inactive: 15.6% |
| O=C(OCCCN1CCCC1)C(O)(c1ccccc1)C1CCCCC1 (centres undefined) | inactive: 12.6% |
| CCN(CC)CC(O)COC(=O)C(O)(c1ccccc1)C1CCCCC1 (centres undefined) | inactive: 2.42% |
| COc1ccc(OP(C)(=O)Nc2ccc(Br)cc2)cc1 (centres undefined) | inactive: 11.3% |
| CCc1ccc(OP(C)(=O)O)cc1 | inactive: 1.2% |
| CP(=O)(Nc1ccccn1)Oc1ccccc1 (centres undefined) | inactive: 0.281% |
| O=[N+]([O-])c1cc([N+](=O)[O-])c(Nc2ccccn2)c([N+](=O)[O-])c1 | inactive: -84.3% |
| CN(C)CCOC(=O)C(O)(c1ccccc1)C1CCCC1 (centres undefined) | inactive: -3.12% |
| COc1ccc(OP(C)(=O)Nc2ccccn2)cc1 (centres undefined) | inactive: -4.62% |
| COc1ccccc1OP(C)(=O)Nc1ccc(Br)cc1 (centres undefined) | inactive: -11.9% |
| CP(=O)(OCCOc1ccccc1)OCCOc1ccccc1 | inactive: 0.319% |
| CP(=O)(Nc1ccc(Cl)cc1Cl)Oc1ccccc1 (centres undefined) | inactive: -0.864% |
| CCCCCCCCCCCCCCCC1C[N+](C)(C)CCOP(C)(=O)O1 (centres undefined) | inactive: -9.85% |
| COc1ccc(OP(C)(=O)Nc2ccccc2Br)cc1 (centres undefined) | inactive: 4.26% |
| COc1ccccc1OP(C)(=O)Nc1ccc(C)c(C)c1 (centres undefined) | inactive: -8.37% |
| O=C1C(O)=C([N+](=O)[O-])C(=O)C(O)=C1[N+](=O)[O-] | inactive: 3.09% |
| Cc1cc(C)cc(OP(C)(=O)Nc2cccc(C(F)(F)F)c2)c1 (centres undefined) | inactive: 6.32% |
